Test results as given in ChEMBL document CHEMBL3102699, “Synthesis and evaluation of 4-substituted piperidines and piperazines as balanced affinity μ opioid receptor (MOR) agonist/δ opioid receptor (DOR) antagonist ligands” (Bioorg Med Chem Lett, 2014).
Activity calls are given as the source filed them. No cut-off for these calls is given here.

The chains behind the UniProt entries cited, without tags or fusion partners.
UniProt P33533, whole entry: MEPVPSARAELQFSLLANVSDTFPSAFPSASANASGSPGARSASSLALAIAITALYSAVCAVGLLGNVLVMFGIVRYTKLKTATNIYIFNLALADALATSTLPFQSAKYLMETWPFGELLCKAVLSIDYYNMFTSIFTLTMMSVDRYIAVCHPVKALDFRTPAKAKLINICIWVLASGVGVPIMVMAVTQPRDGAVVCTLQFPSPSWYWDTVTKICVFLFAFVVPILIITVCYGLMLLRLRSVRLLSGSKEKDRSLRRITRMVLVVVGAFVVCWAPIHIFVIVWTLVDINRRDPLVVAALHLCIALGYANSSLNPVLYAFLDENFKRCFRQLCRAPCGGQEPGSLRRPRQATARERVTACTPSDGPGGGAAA

Target: Delta-type opioid receptor (Rattus norvegicus) (UniProt P33533)
Test: Agonist activity at rat delta opioid receptor expressed in rat C6 cells assessed as stimulation of [35S]-GTPgammaS binding at 10 uM after 1 hr by liquid scintillation counting analysis relative to DPDPE
Format: functional, cell-based

| Compound | %max |
| --- | --- |
| Cc1cc(O)cc(C)c1C[C@H](N)C(=O)N1CCC(Cc2ccccc2)c2ccccc21 (some centres undefined) | inactive |
| Cc1cc(O)cc(C)c1C[C@H](N)C(=O)N1CCN(C/C=C/Cc2ccccc2)CC1 | inactive |
| Cc1cc(O)cc(C)c1C[C@H](N)C(=O)N1CCN(CCCCc2ccccc2)CC1 | inactive |
| Cc1cc(O)cc(C)c1C[C@H](N)C(=O)N1CCN(CCCc2ccccc2)CC1 | inactive |
| Cc1cc(O)cc(C)c1C[C@H](N)C(=O)N1CCN(C/C=C\Cc2ccccc2)CC1 | inactive |
| Cc1cc(O)cc(C)c1C[C@H](N)C(=O)N1CCC(Cc2ccccc2)CC1 | inactive |
| Cc1cc(O)cc(C)c1C[C@H](N)C(=O)N1CCN(CCC(c2ccccc2)c2ccccc2)CC1 | inactive |
| Cc1cc(O)cc(C)c1C[C@H](N)C(=O)N1CCC(CCCc2ccccc2)CC1 | inactive |
| Cc1cc(O)cc(C)c1C[C@H](N)C(=O)N1CCN(CCCCCc2ccccc2)CC1 | inactive |
